The values below are quoted from earlier work in US20230073449A1, “STROMA-FREE T CELL DIFFERENTIATION FROM HUMAN PLURIPOTENT STEM CELLS” (THE CHILDREN'S MEDICAL CENTER CORPORATION, priority 2020, published 2023).

Sequences of proteins named here, by UniProt entry; tags and fusion partners are left off. A change or cut given only in a name is not applied to a line headed by its entry.
UniProt P26358: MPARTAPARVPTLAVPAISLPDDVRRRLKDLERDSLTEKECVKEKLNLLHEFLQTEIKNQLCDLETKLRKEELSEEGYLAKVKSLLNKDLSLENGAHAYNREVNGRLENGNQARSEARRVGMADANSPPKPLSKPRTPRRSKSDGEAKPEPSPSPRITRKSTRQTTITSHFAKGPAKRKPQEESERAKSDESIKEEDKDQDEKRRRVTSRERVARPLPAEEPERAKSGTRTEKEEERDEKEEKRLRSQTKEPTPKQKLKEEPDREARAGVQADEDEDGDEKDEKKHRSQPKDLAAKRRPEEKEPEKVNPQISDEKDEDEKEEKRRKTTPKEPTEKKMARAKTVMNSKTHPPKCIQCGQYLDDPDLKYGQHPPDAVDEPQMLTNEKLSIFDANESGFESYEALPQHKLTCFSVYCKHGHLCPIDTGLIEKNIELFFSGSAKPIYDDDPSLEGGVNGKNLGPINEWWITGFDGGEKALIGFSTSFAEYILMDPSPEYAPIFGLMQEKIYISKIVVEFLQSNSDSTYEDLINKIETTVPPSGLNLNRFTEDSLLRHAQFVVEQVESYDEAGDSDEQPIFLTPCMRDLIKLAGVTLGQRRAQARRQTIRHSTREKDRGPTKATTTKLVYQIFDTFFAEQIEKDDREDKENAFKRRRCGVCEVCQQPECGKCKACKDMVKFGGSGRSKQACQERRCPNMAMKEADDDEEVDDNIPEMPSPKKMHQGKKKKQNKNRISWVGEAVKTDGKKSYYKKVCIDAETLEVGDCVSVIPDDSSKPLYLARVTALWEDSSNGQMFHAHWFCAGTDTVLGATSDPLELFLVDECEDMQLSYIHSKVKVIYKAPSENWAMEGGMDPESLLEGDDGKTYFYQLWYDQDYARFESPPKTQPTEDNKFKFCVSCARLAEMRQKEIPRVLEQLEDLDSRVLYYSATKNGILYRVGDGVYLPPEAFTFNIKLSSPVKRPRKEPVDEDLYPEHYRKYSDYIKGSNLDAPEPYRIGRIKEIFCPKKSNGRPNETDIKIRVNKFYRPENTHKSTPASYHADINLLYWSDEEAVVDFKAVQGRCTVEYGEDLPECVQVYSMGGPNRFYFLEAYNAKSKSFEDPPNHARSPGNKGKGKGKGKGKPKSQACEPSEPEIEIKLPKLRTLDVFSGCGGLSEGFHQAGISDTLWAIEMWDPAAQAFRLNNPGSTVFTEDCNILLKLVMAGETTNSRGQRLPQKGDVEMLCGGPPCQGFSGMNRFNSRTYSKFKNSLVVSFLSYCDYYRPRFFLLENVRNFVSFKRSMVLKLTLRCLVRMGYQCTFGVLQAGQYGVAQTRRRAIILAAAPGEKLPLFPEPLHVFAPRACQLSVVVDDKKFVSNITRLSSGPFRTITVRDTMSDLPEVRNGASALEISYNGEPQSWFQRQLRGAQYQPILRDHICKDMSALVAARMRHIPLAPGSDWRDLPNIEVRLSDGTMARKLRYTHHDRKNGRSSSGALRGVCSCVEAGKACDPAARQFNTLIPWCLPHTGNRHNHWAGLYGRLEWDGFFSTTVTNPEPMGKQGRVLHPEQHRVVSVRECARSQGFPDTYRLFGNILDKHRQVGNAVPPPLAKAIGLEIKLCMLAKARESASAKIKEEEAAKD
UniProt O43463: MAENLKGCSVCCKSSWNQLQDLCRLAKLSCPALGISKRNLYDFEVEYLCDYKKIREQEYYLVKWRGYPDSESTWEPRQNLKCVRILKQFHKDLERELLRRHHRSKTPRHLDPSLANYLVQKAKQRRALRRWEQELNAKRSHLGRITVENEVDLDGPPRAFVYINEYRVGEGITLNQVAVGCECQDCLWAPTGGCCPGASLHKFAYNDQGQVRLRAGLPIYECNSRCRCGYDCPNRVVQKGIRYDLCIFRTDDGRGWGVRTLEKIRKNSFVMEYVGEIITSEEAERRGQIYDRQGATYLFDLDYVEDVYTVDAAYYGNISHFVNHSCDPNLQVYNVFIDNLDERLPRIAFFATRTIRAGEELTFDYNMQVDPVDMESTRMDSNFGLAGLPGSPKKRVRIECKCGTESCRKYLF

Data set [1] addresses NDMT1 (Homo sapiens, UniProt P26358). Conditions: up to a concentration of 40 μM; cited from earlier work.
In data set [2] the target is SU39H1 (Homo sapiens, UniProt O43463). Conditions: up to a concentration of 40 μM; cited from earlier work.
For data set [3], the target named is T1, G9a (Homo sapiens, UniProt Q96KQ7).
T1 sequence (Q96KQ7 1-1210): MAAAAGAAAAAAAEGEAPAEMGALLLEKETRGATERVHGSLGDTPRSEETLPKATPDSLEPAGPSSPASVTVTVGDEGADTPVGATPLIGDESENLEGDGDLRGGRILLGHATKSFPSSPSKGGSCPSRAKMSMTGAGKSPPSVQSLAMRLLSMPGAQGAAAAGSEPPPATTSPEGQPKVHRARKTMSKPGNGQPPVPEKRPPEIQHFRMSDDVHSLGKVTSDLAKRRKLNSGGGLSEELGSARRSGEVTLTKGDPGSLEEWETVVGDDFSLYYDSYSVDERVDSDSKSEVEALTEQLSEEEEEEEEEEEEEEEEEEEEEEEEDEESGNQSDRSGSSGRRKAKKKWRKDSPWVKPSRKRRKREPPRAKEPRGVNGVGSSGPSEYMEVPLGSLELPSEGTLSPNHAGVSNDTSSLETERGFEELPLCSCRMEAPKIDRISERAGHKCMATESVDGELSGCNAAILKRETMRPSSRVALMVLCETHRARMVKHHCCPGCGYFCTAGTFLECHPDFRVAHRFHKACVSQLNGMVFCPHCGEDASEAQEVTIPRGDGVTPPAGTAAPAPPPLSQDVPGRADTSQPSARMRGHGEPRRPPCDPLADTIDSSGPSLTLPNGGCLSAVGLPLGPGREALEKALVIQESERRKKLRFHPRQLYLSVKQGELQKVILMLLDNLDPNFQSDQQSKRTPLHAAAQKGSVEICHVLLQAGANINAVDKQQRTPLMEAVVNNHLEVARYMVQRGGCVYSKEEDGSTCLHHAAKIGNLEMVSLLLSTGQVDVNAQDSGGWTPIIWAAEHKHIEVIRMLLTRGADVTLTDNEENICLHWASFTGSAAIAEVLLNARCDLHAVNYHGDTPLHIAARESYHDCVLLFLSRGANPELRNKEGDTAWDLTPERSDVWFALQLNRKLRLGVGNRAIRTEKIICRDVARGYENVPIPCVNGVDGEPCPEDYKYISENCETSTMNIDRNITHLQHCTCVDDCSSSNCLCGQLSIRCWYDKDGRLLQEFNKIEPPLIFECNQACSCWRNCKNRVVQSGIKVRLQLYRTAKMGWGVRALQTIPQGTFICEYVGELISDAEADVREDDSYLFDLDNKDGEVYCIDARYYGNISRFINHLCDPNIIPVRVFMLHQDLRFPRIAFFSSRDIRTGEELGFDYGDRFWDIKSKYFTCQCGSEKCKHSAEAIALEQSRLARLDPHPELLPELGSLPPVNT
The conditions noted are these: cited from earlier work.

In the case of `O=C(O)c1ccc2c(c1)nc(NC(=O)c1ccccc1)n2CCCc1ccccc1` [BRD9539], in data set [1], the “selectivity for G9a and PRC2 over NDMT1” value is on record as “selective”. In data set [2], the “selectivity for G9a and PRC2 over SU39H1” value was “selective”. Further, in data set [3], the “potency relative to BRD4770” value is reported as “is more potent than”.
